In the library only some 0.14% were active in any assay of this set; here they are far more common.
GALK inh: inhibitors of human galactokinase. AID 1868. Potency, µM (titrated, usually from 57.5 µM), for the others: top-dose activity change, negative = inhibition, most hits filed as inhibitors. Purified GALK, Kinase-Glo residual ATP luminescence. P51570. hit rate 0.007% among 270,000; also: potency is read from the fitted curve at half-maximal effect; % is scaled to controls: 0 for no effect and ±100 for the full control effect
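Kinase-Glo Plus luminescence measured ATP left after a 1 h room-temperature reaction. The reaction used 5 nM GALK, 100 uM galactose and 35 uM ATP at pH 8.0 (20 mM HEPES, 5 mM MgCl2, 60 mM NaCl, 1 mM DTT, 0.01% BSA).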
PI4K2A inh: blocks human PI4K2A kinase activity | Q9BTU6 | purified PI4K2A, ADP-Glo luminescence, 1 h; hits give low values | activity change, negative = inhibition, % at 76.9 µM | hit rate 0.13% among 420,000 | AID 1346378; in the data active = activity change below about -50%; inconclusive = mostly about -30% to -49%;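 also: -100% = wells without enzyme as full effect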
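Compounds are screened against recombinant PI4K2A using PI as substrate and ATP, the latter dispensed at 300 microM. Reactions run one hour at ambient temperature before ADP-Glo detection; full inhibition defined by wells lacking enzyme.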
S-ASM inh: inhibitors of human secretory acid sphingomyelinase. P17405. placental ASM, HMU-PC fluorogenic substrate, 60 min. Potency, µM (series often up to 57.5 µM), for the others: at the top dose activity change, negative = inhibition, usual class: inhibitors. hit rate 0.006% among 340,000; also: potency is read from the fitted curve at half-maximal effect
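Steps: dispense placental human ASM, pin compound, wait 10 min at room temperature, add HMU-PC0 substrate at 9 uM final, incubate 60 min at 37 °C, add stop solution raising pH to 10, read fluorescence.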
miR-21 FLuc: raises the signal of a miR-21 reporter; HeLa miR-21 FLuc reporter, luciferase, 48 h; Potency, µM (top dose mostly 38.3 µM), for inactives: at the highest dose reporter change, positive = more light; AID 2288; 340,000 tested, under 10 active; active = well fitted rising curve with a large enough effect; inconclusive = small, poorly fitted or top-dose-only effect; inactive = no such curve, though single readings can be large or run the other way;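 note: % of control where 0% means no effect; miR-21 action dims this reporter so a rising signal means less miR-21 action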
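Luminescence from a firefly luciferase reporter carrying a miR-21 binding site downstream, stably expressed under a CMV promoter in HeLa cells that make miR-21 endogenously, reports miRNA modulation after 48 h compound exposure up to approximately 40uM final.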
Numbers without * were called inactive; ? = inconclusive; . = not tested or not shown; ! = a repeat was not active. Unless noted, calls follow the shape of the dose curve; as a rule, active = well fitted curve in the direction sought with a large enough effect; inconclusive = small, poorly fitted or top-dose-only effect, or another doubt; inactive = no such curve, though single readings can be large; an effect the other way counts as inactive or inconclusive.

| GALK inh | mol | PI4K2A inh | S-ASM inh | miR-21 FLuc |
| --- | --- | --- | --- | --- |
| . | CCOc1ccc(C(c2c(C)[nH]n(-c3ccccc3)c2=O)c2c(C)[nH]n(-c3ccccc3)c2=O)cc1OC | -58* | . | 2% |
| 1% | Cc1[nH]n(-c2ccccc2)c(=O)c1C(c1ccc(C(=O)O)cc1)c1c(C)[nH]n(-c2ccccc2)c1=O | -20 | -6% | 3% |
| . | Nc1cc(C(F)(F)F)ccc1S | -10 | . | . |
| ? | Cc1occc1C(=O)N/N=C/c1ccc(N(C)C)cc1 | -87* | 347% | -24% |
| -1% | COc1ccc(-c2cn3cc(C(=O)NN)ccc3n2)cc1 | -72* | 89% | -32% |
| . | Cc1cccc(OCC(O)CNC(C)(C)C)c1C (configuration not stated) | -1 | . | . |
| 0% | CC(=NCc1cccnc1)C1=C(O)c2ccccc2C1=O | -54* | -2% | -21% |
| . | CC[C@@H]([C@H](C)O)n1ncn(-c2ccc(N3CCN(c4ccc(OC[C@@H]5CO[C@@](Cn6cncn6)(c6ccc(F)cc6F)C5)cc4)CC3)cc2)c1=O | -4 | . | . |

Compound profiles, as listed above:
COc1ccc(-c2cn3cc(C(=O)NN)ccc3n2)cc1 is listed as GALK inh = -1%; PI4K2A inh = -72*; S-ASM inh = 89%; miR-21 FLuc = -32%
Cc1occc1C(=O)N/N=C/c1ccc(N(C)C)cc1 is listed as GALK inh = ?; PI4K2A inh = -87*; S-ASM inh = 347%; miR-21 FLuc = -24%
Cc1[nH]n(-c2ccccc2)c(=O)c1C(c1ccc(C(=O)O)cc1)c1c(C)[nH]n(-c2ccccc2)c1=O is listed as GALK inh = 1%; PI4K2A inh = -20; S-ASM inh = -6%; miR-21 FLuc = 3%

Further entries:
| GALK inh | mol | PI4K2A inh | S-ASM inh | miR-21 FLuc |
| --- | --- | --- | --- | --- |
| 0% | Cc1cc(C)c(S(=O)(=O)/N=C2/C=C(SCC(=O)O)C(=O)c3ccccc32)cc1C | -53* | ? | 15% |
| 0% | Cc1cc(C)c(S(=O)(=O)Nc2cc(SCC(=O)O)c(O)c3ccccc23)cc1C | ? | -28% | 24% |
| 29% | CC1=C/C(=C(\c2cc(C)c(O)c(Br)c2)c2ccccc2S(=O)(=O)O)C=C(Br)C1=O | -69* | 1% | 27% |
| . | Cc1cc(C(=O)c2ccccc2)cc(C)c1O | 25 | 0% | . |
| . | CCCc1ncc(C(=O)O)s1 | 0 | . | . |
| 0% | Cc1ccc(C)c(OCCCC(C)(C)C(=O)O)c1 | -62*! | 5% | -9% |
| . | CC(=O)c1cccc(NC(=O)c2cc(-c3ccc4c(c3)OCCO4)on2)c1 | 0 | . | 11% |
| 14% | O=C(Nc1cccc(O)c1)c1cc(-c2ccc3c(c2)OCO3)on1 | -72* | 2% | 30% |
| 1% | Cc1cc(=O)n(-c2ccc(C(=O)O)cc2)[nH]1 | -56* | 3% | -5% |
| 2% | CCOC(=O)N1CCN(c2cc(NCCC(=O)O)c3c4c(onc24)-c2ccccc2C3=O)CC1 | -57* | -17% | -2% |
| -9% | Cc1oc2c(c1C(=O)c1ccccc1)C(=O)C(=O)c1ccccc1-2 | -64* | -14% | ? |
| . | O=C(CCOCCOCCOCCOCCC(=O)Nc1c(I)cc(I)c(C(=O)O)c1I)Nc1c(I)cc(I)c(C(=O)O)c1I | -6 | . | . |
| . | C/C(=N/NC(=O)c1ccncc1)C(=O)O | -1 | . | . |
| . | CC(O)(P(=O)(O)O)P(=O)(O)O | 3 | 14µM* | . |
| . | NCCC(O)(P(=O)(O)O)P(=O)(O)O | 2 | . | . |
| 0% | COc1ccc(NC(=O)c2csc3c2CCCC3)cc1 | -61* | 2% | -49% |
| . | COc1cc(/C=C2\C(=O)N(c3cccc(C(=O)O)c3)N=C2C)ccc1OCc1ccccc1 | -59* | . | . |
| 0% | C#CCOc1ccc(/C=C2/C(=O)N(c3cccc(C(=O)O)c3)N=C2C)cc1OC | ? | 5% | 0% |
| -3% | COc1cc(/C=C/[N+](=O)[O-])ccc1OCc1cccc(C(=O)O)c1 | -51* | 3% | -32% |
| -6% | COc1cc(/C=C2\C(=O)N(c3ccc(S(N)(=O)=O)cc3)N=C2C)ccc1OC(=O)c1ccco1 | -52* | -25% | 0% |
| . | CSc1ccc(/C=C/c2nc3ccccc3n2S(=O)(=O)c2ccc(F)c(C)c2)cc1 | ? | . | 27% |
| 0% | CCOc1cc(S(=O)(=O)n2c(C)nc3ccccc32)ccc1F | -2 | 4% | -1% |
| . | CCOc1ccc(/C=C/c2nc3ccccc3n2S(=O)(=O)c2cccc(Cl)c2)cc1 | -70* | . | -6% |
| . | Cc1ccc(/C=C/c2nc3ccccc3n2S(=O)(=O)c2cccc(Cl)c2)cc1 | -63* | . | ? |
| . | CC(=O)O[C@H]1CC[C@@]2(C)C(=CC[C@@H]3[C@@H]2CC[C@]2(C)C(C(C)=O)=CC[C@@H]32)C1 | 3 | . | . |
| . | CCC(C(=O)O)c1ccc(N2Cc3ccccc3C2=O)cc1 (configuration not stated) | -5 | . | . |
| 5% | C(=C\c1ccc2ccccc2n1)/c1ccccc1 | ? | -1% | 17% |
| 14% | Oc1ccc(/C=C/c2ccc3ccccc3n2)cc1 | -75* | 390% | 25% |
| . | CN(C)c1ccc(-c2[nH][nH]c(=O)c2NC(=O)c2ccccn2)cc1 | -64* | . | . |
| . | CN(C)c1ccc(-c2[nH][nH]c(=O)c2NC(=O)c2ccc3ccccc3n2)cc1 | -65* | . | . |
| . | CC(CC1c2ccccc2CCc2ccccc21)CN(C)C (configuration not stated) | 0 | . | . |
| . | CCCC(=O)O[C@]1(C(=O)CC)CC[C@H]2[C@@H]3CCC4=CC(=O)CC[C@]4(C)[C@H]3[C@@H](O)C[C@@]21C | -1 | . | . |
| . | Nc1nc(=O)n([C@@H]2O[C@H](CO)[C@@H](O)[C@@H]2F)cc1I | -1 | . | . |

Bioassay records as filed in PubChem.
